The text below walks through data of US20080008652A1, “Methods and compositions for mediation of immune responses and adjuvant activity” (The Regents of the University of Michigan, priority 2006, published 2008).

This assay concerns BMDM. The experiment in a line: Cooperation of low-dose LPS with microbial ligands for IL-1β secretion. It counts as cell-based, mouse. The settings on record: WT BMDM; 10 ng ml−1 LPS and 10 ng ml−1 ligand; 24 h. The method, then: Measurements of cytokines. BMDM and peritoneal macrophages were prepared as previously described. Cells were stimulated with various microbial and synthetic ligands for 24 h and the supernatants were analyzed for IL-1β, IL-18, TNFα and IL-6 secretion. The following ligand concentrations were used: FLS-1, Pam3CSKKK4, LPS, lipoteichoic acid, lipid A and MDP were used at 1 μg ml^−1. For analysis of cooperation of LPS with various ligands, 10 ng ml^−1 of LPS and 10 ng ml^−1 of various ligands were used. In some experiments, the macrophages were stimulated with ligands for 16 h and then with medium containing 2 mM ATP (Sigma) for 30 min, washed, and cultured for an additional 5 h. Mouse cytokines were measured in culture supernatants with enzyme-linked immunoabsorbent assay (ELISA) kits (R and D Systems, Minneapolis, Minn.).

In the case of `CC(C)Cn1cnc2c(N)nc3ccccc3c21` [R837, Imiquimod], the “synergy with LPS for the secretion of IL-1β” value is given as “synergized”.
